Source: ChEMBL document CHEMBL5154908, “Design, Synthesis, and Biological Characterization of Inhaled p38α/β MAPK Inhibitors for the Treatment of Lung Inflammatory Diseases” (J Med Chem, 2022)

How the values were obtained:
[1] = species: Homo sapiens; assay: Selectivity index, ratio of IC50 for inhibition of recombinant human full length His-tagged p38gamma expressed in baculovirus expression system to IC50 for inhibition of human recombinant full length GST-tagged p38alpha expressed in Escherichia coli
[2] = species: Homo sapiens; assay: Selectivity index, ratio of IC50 for inhibition of recombinant human full length His-tagged p38delta expressed in baculovirus expression system to IC50 for inhibition of human recombinant full length GST-tagged p38alpha expressed in Escherichia coli

C[C@H]1CCCCN1c1nnc2ccc(O[C@@H]3CC[C@H](NC(=O)Nc4cc(C(C)(C)C)nn4-c4cnn(CCN(C)C)c4)c4ccccc43)cn12
Ratio IC50 [1]: > 800 | Ratio IC50 [2]: > 25000
